A short description of the series: Solute diffusion from microfluidic channels into agarose hydrogel (time-lapse fluorescence). It is filed as physicochemical. The note with it: solution pumped through channels at 25 μL/min; 1.5 wt % agarose.

In the case of FITC-dextran, the “diffusion from microchannels into adjacent hydrogel” value was “did not penetrate the hydrogel”.

The values are drawn from patent US11326138B2, “Cell culture device and methods of use thereof” (University of Kentucky Research Foundation, priority 2017, dated 2022).
